Results taken from patent US20240150368A1, “ULK INHIBITORS AND METHODS OF USE THEREOF” (Deciphera Pharmaceuticals, LLC, priority 2022, published 2024).

Sequences of proteins named here, by UniProt entry; tags and fusion partners are left off. A line that says so, or that is headed by a name, gives the form on record, which may keep a tag or linker. Residues count along the entry.
UniProt O75385, 1-283 E37A/K38A: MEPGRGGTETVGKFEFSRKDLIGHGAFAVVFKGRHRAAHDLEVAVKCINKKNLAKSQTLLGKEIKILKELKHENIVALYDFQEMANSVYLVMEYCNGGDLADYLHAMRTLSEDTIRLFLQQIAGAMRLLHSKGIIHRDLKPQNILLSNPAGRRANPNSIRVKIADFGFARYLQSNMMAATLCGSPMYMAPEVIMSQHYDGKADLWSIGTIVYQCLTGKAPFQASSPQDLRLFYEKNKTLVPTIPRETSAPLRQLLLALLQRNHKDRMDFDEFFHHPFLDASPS
UniProt Q8IYT8, 1-306 with tags or gaps: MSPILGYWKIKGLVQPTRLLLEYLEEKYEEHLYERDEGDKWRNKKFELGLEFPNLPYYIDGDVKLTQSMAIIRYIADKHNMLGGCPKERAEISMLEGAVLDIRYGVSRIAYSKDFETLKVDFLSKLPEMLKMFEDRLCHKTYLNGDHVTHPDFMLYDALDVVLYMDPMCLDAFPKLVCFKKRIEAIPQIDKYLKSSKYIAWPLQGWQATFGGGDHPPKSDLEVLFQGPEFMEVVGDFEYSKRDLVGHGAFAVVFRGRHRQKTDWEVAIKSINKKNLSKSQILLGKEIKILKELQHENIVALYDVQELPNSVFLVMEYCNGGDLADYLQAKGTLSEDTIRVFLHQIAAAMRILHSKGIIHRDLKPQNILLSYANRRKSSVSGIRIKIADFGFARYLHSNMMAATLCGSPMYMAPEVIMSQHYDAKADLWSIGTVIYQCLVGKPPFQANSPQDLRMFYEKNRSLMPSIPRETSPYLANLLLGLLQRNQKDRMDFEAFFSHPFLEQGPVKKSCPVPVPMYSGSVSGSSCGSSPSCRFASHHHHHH

Columns and labels:
ULK1 kinase = ULK1 kinase (Homo sapiens, UniProt O75385, E37A/K38A); assay: Biochemical assay for ULK1 (coupled pyruvate kinase/lactate dehydrogenase assay); conditions: read-out: ULK1 (inhibition of biochemical activity), IC50; 1 mM ATP, 0.1 nM ULK1
Protocol: Biochemical Assay for ULK1 (SEQ. ID NO: 1)
Activity of ULK1 kinase was determined spectroscopically using a coupled pyruvate kinase/lactate dehydrogenase assay that continuously monitors the ATP hydrolysis-dependent oxidation of NADH (e.g., Schindler et al. Science (2000) 289: 1938-1942). Assays were conducted in 384-well plates (100 μL final volume) using 0.1 nM ULK1 (from Beryllium), 0.075 mM peptide substrate (YANWLAASIYLDGKKK), 1.5 units pyruvate kinase, 2.1 units lactate dehydrogenase, 1 mM phosphoenol pyruvate, 0.28 mM NADH and 1 mM ATP in assay buffer (100 mM Tris, pH 7.5, 15 mM MgCl2, 0.5 mM DTT, 0.004% (w/v) BSA, and 0.004% Triton X-100). Inhibition of ULK1 was measured by adding serial diluted test compound (final assay concentration of 1% DMSO). A decrease in absorption at 340 nm was monitored continuously for 6 h at 30° C. on a multi-mode microplate reader (BioTek). The reaction rate was calculated using the 2-3 h time frame. The reaction rate at each concentration of compound was converted to percent inhibition using controls (i.e., reaction with no test compound and reaction with a known inhibitor) and IC50 values were calculated using software routines in Prism (GraphPad software).

ULK2 kinase = ULK2 kinase (Homo sapiens, UniProt Q8IYT8); assay: Biochemical assay for ULK2 (coupled pyruvate kinase/lactate dehydrogenase assay); conditions: read-out: ULK2 (inhibition of biochemical activity), IC50; 1 mM ATP, 1 nM ULK2
Protocol: Biochemical Assay for ULK2 (SEQ. ID NO: 2)
Activity of ULK2 kinase was determined spectroscopically using a coupled pyruvate kinase/lactate dehydrogenase assay that continuously monitors the ATP hydrolysis-dependent oxidation of NADH (e.g., Schindler et al. Science (2000) 289: 1938-1942). Assays were conducted in 384-well plates (100 μL final volume) using 1 nM ULK2 (Signal Chem U02-11G), 200 μM ULKtide, 1.5 units pyruvate kinase, 2.1 units lactate dehydrogenase, 1 mM phosphoenol pyruvate, 0.28 mM NADH and 1 mM ATP in assay buffer (100 mM Tris, pH 7.5, 15 mM MgCl2, 0.5 mM DTT, 0.1% octyl-glucoside, 0.002% (w/v) BSA, and 0.002% Triton X-100). Inhibition of ULK2 was measured by adding serial diluted test compound (final assay concentration of 1% DMSO). A decrease in absorption at 340 nm was monitored continuously for 6 h at 30° C. on a multi-mode microplate reader (BioTek). The reaction rate was calculated using the 2-3 h time frame. The reaction rate at each concentration of compound was converted to percent inhibition using controls (i.e., reaction with no test compound and reaction with a known inhibitor) and IC50 values were calculated by fitting a four-parameter sigmoidal curve to the data using Prism (GraphPad software).

[1] = system: ULK kinase substrate ATG13 (pS318-ATG13) in A549 (KRAS mutant) cells; assay: pATG13 levels of mutant KRas A549 cells after treatment with ULK inhibitors in combination with trametinib (ELISA); conditions: read-out: A549 pATG13 ELISA, IC50
Protocol: Cellular Inhibition of ULK Kinase Substrate ATG13 Protein pATG13 Levels of Mutant KRas A549 Cells after Treatment with ULK Inhibitors in Combination with Trametinib
(§1) A549 (KRAS mutant) human lung cancer cells (6,000 cells/well) were added to a 384-well tissue-culture treated plate in 50 μL of pre-warmed DMEM medium supplemented with 10% characterized fetal bovine serum (Invitrogen, Carlsbad, CA), 100 units/mL penicillin G, and 100 μg/mL streptomycin and allowed to grow overnight at 37° C., 5% CO2, and 95% humidity. The following day, 10 μL of media containing trametinib or DMSO as a control was added to wells. The final concentration of trametinib in wells was 250 nM. A dose response of a test compound (0.6 μL per well) was added. DMSO (0.6 μL) was added to control wells. The plate was briefly shaken to mix wells and then incubated at 37° C. overnight. The next day, the media was aspirated and cells were washed with Dulbecco's Phosphate Buffered Saline (Gibco). […]
(§2) Cellular levels of phospho-Serine 318 ATG13 (pATG13) were measured via an ELISA method. […] The plate was analyzed at on a plate reader measuring absorbance at 450 nm and 540 nm (background). Signal was calculated by first subtracting the background absorbance at 540 nm from the absorbance at 450 nm for each well. Next, the background corrected absorbance at 450 nm from blank wells was subtracted from test wells. […]

[2] = system: ULK kinase substrate ATG13 (pS318-ATG13) in MiaPaCa-2 cells; assay: pATG13 levels of mutant KRas MiaPaCa-2 cells after treatment with ULK inhibitors in combination with trametinib (ELISA); conditions: read-out: MiaPaca-2 pATG13 ELISA, IC50
Protocol: pATG13 Levels of Mutant KRas MiaPaCa-2 Cells after Treatment with ULK Inhibitors in Combination with Trametinib
as §1, with “MiaPaCa-2” for “A549 (KRAS mutant)”, “pancreatic” for “lung”, “(10000” for “(6,000”, “G,” for “G, and”, “streptomycin, and 2.5% Horse Serum” for “streptomycin”
as §2

[3] = system: ULK kinase substrate ATG13 (pS318-ATG13) in HCT-116 cells; assay: pATG13 levels of mutant KRas HCT-116 cells after treatment with ULK inhibitors in combination with trametinib (ELISA); conditions: read-out: HCT-116 pATG13 ELISA, IC50
Protocol: pATG13 Levels of Mutant KRas HCT-116 Cells after Treatment with ULK Inhibitors in Combination with Trametinib
as §1, with “HCT-116” for “A549 (KRAS mutant)”, “colon” for “lung”, “(10000” for “(6,000”
as §2

[4] = system: ULK kinase substrate ATG13 (pS318-ATG13) in T24 cells; assay: pATG13 levels of mutant HRas T24 cells after treatment with ULK inhibitors in combination with trametinib (ELISA); conditions: read-out: T24 pATG13 ELISA, IC50, in combination with trametinib 250 nM
Protocol: pATG13 Levels of Mutant HRas T24 Cells after Treatment with ULK Inhibitors in Combination with Trametinib
T24 human urinary bladder cancer cells (25000 cells/well) were added to a 96-well tissue-culture treated plate in 100 μL of pre-warmed DMEM medium supplemented with 10% characterized fetal bovine serum (Invitrogen, Carlsbad, CA), 100 units/mL penicillin G, and 100 μg/mL streptomycin and allowed to grow overnight at 37° C., 5% CO2, and 95% humidity. The following day, 100 μL of media containing trametinib or DMSO as a control was added to wells. The final concentration of trametinib in wells was 250 nM. A dose response of a test compound (0.5 μL per well) was added. DMSO (0.5 μL) was added to control wells. The plate was briefly shaken to mix wells and then incubated at 37° C. overnight. The next day, the media was aspirated and cells were washed with Dulbecco's Phosphate Buffered Saline (Gibco). […]
as §2

- IC50 (ULK1 kinase): 10 to 100 nM
- IC50 (ULK2 kinase): 10 to 100 nM
- IC50 [1]: < 100 nM
- IC50 [2]: < 100 nM
- IC50 [3]: < 100 nM
- IC50 [4]: < 100 nM
Structure (SMILES): CC/C(Nc1ccc(N2CCN(C)CC2)cc1)=C1/C(=O)Nc2ccc(C(=O)NCC(F)(F)F)cc21
